# miR-21 reporter: raises the signal of a miR-21 reporter | HeLa miR-21 FLuc reporter, luciferase, 48 h | Potency, µM (highest dose often 38.3 µM), for inactives: at the highest dose reporter change, positive = more light | 340,000 tested, under 10 active | AID 2288; active = well fitted rising curve with a large enough effect; inconclusive = small, poorly fitted or top-dose-only effect; inactive = no such curve, though single readings can be large or run the other way;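 also: % of control where 0% means no effect; miR-21 action dims this reporter so a rising signal means less miR-21 action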
#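 Luminescence from a firefly luciferase reporter carrying a miR-21 binding site downstream, stably expressed under a CMV promoter in HeLa cells that make miR-21 endogenously, reports miRNA modulation after 48 h compound exposure up to approximately 40uM final.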
# KDM4E inh: inhibitors of human JMJD2E histone demethylase. B2RXH2. JMJD2E catalytic domain, FDH-coupled NADH fluorescence (FDH is formaldehyde dehydrogenase). Potency, µM (top dose mostly 57.1 µM), inactives show top-dose activity change, negative = inhibition, hits mostly inhibitors. 230,000 tested, 1.6% active. AID 2147; active = well fitted inhibition curve with a large enough effect, not every such curve was filed as active; inconclusive = small, poorly fitted or top-dose-only effect, or another doubt; inactive = no such curve, though single readings can be large or run the other way;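 note: potency is the fitted concentration of half-maximal effect; 0% = wells with enzyme and -100% = buffer wells without enzyme; nearly all actives have a fitted effect of over 50% in size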
# ALDH1A1 block: blocks purified human ALDH1A1 activity; Purified ALDH1A1, NADH fluorescence, propionaldehyde substrate; Potency, µM (top dose mostly 75.3 µM), for the others: top-dose activity, negative = inhibition, actives largely listed as inhibitors; 220,000 tested, 7.3% active; AID 1030; active = well fitted inhibition curve with a large enough effect, not every such curve was filed as active; inconclusive = small, poorly fitted or top-dose-only effect, or another doubt; inactive = no such curve, though single readings can be large or run the other way;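 note: potency is the fitted concentration of half-maximal effect; plate controls were no enzyme wells and a reference inhibitor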
# G9a block: inhibitors of human histone lysine methyltransferase G9a; Q96KQ7; G9a H3K9 monomethylation, AlphaScreen, 2 h; Potency, µM (highest dose often 102 µM), for the others: top-dose activity, negative = inhibition, actives largely listed as inhibitors; 350,000 tested, 8.8% active; AID 504332; note: potency is the fitted concentration of half-maximal effect; % is set by controls: 0 for no effect and ±100 for the full control effect; nearly all actives have a fitted effect of over 75% in size
#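 Using a bead-based AlphaScreen, monomethylated H3K9 product from 2 h room-temperature reactions (G9a 20 nM, peptide 500 nM, SAM 20 uM) was detected with 0.5 ug/mL rabbit anti-H3K9me1 antibody.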
# Sfp inh: qHTS Assay for Inhibitors of Bacillus subtilis Sfp phosphopantetheinyl transferase (PPTase). Potency, µM, inactives show max response, negative = inhibition, most hits filed as inhibitors. Biochemical Sfp PPTase activity, qHTS. AID 1490, 2009. 4'-phosphopantetheinyl transferase ffp (Bacillus subtilis), Q9F4F7. hit rate 3.5% among 310,000; active = well fitted inhibition curve with a large enough effect; inconclusive = small, poorly fitted or top-dose-only effect, or another doubt; inactive = no such curve, though single readings can be large or run the other way;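 also: the enzyme is Sfp with the accession as filed and its product quenches rhodamine fluorescence; potency is read from the fitted curve at half-maximal effect; 0% = enzyme reaction without inhibitor and -100% = no enzyme wells; top concentration of the series not given in the record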
#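 With Hepes-Na pH 7.6 buffer containing 10 mM MgCl2, Sfp (15 nM) modified BHQ-2-YbbR (12.5 uM) using rhodamine-CoA (5 uM). Two reads 30 minutes apart at 525/598 nm yielded each well's rate.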
# LMNA splice mod: changes lamin A minigene splicing in HeLa cells | HeLa LMNA splicing GFP/RFP minigene ratio, 48 h | Potency, µM (titrated, usually from 46.1 µM), for the others: top-dose ratio change, negative = inhibition, usual class: inhibitors | 200,000 tested, 0.01% active; active = well fitted inhibition curve with a large enough effect in the signal ratio, with a control signal flat, not every such curve was filed as active; inconclusive = small, poorly fitted or top-dose-only effect, or effect the other way, or a change in a side signal; the % refers to the signal ratio; note: potency is the fitted concentration of half-maximal effect; % is set by controls: 0 for no effect and ±100 for the full control effect
#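 S3 HeLa cells stably expressing lamin A-EGFP splicing minigene plus DsRed2, 600 cells/well, 48 h compound exposure at 37C. Laser-scanning cytometry; analysed as GFP (500-530 nm)/RFP (575-640 nm) total intensity ratio; 0.5% DMSO vehicle.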
# * marks the source's active call; other numbers are inactive results; ? = inconclusive; / = no result given; [ ] = remark or other dose. Only some compounds are listed: those with a hit (about 13% of all), similar ones and a draw of the others. Unless noted, calls come from the whole dose curve; as a rule, active = well fitted curve in the direction sought with a large enough effect; inconclusive = small, poorly fitted or top-dose-only effect, or another doubt; inactive = no such curve, though single readings can be large; an effect the other way counts as inactive or inconclusive.
miR-21 reporter | KDM4E inh | ALDH1A1 block | G9a block | Sfp inh | LMNA splice mod | Molecule
3% | ? | 1% | 79µM* | -7% | ? | Cc1oc(C(=O)O)cc1COc1cccc2cccnc12
-7% | -13% | -2% | 45µM* | 6% | -2% | NC(=O)COc1cccc2cccnc12
3% | / | / | ? | / | / | Cc1ccc(CNC(=O)Cc2c(C)c3c(cc(C)c4c(C)coc43)oc2=O)cc1
-3% | 16µM* | -1% | ? | ? | ? | Cc1occc(=O)c1O
1% | ? | 2% | -122%[59 µM] | -20% | / | Cc1c(O)ccoc1=O
2% | ? | -11% | -5% | -10% | / | CC(CCCC(C)(C)O)CC1C2=C(CCCC2=O)OC2=C1C(=O)CCC2 (configuration not stated)
1% | 4% | -2% | -20% | 2% | 1% | CCOC(=O)C1=C(C)N=C2SCCC(=O)N2C1c1ccc(C(=O)OC)cc1 (configuration not stated)
-7% | 20µM* | ? | ? | 9% | ? | CCOC(=O)C1=C(C)N2C(=C(C#N)[C@@H]1c1ccc(C(=O)OC)cc1)SC[C@@]2(O)C(C)(C)C
-5% | / | / | 6%[59 µM] | / | / | CC1(C)O[C@H]2[C@@H](O1)[C@@H](C(=O)Nc1ccc(F)c(F)c1)O[C@@H]1OC(C)(C)O[C@@H]12
-43% | ? | -4% | 8.9µM* | ? | -5% | CN(C)c1cccc(C(=O)NC2CCCCCC2)c1
0% | 1% | 4% | -32% | 15% | ? | CCOc1ccc(C(C)NC(=S)NC2CCCCC2)cc1OCC (configuration not stated)
-18% | / | / | 7.9µM* | 14µM* | / | CCOc1ccc(C(=S)NC2CCCCC2)cc1OCC
-5% | ? | -11% | ? | 10% | -15% | CCCN1C(=O)c2cc(C(=O)O)ccc2C1O (configuration not stated)
-38% | 1% | 16µM* | ? | 16% | -8% | CCCN1C(=O)c2cc(C(=O)NC3CCCCCC3)ccc2C1O (configuration not stated)
0% | / | / | 35µM* | -9% | / | CC1Nc2ccc(C(=O)NC3CCCCC3)cc2NC1=O (configuration not stated)
-29% | -27% | 10µM* | / | 10µM* | / | CCN(CC)c1ccc(C(=S)NCc2ccccc2)cc1
-34% | -20% | 7.9µM* | -147%[59 µM] | 32µM* | / | CCN(CC)c1ccc(C(=S)NC2CCCCC2)cc1
-59% | ? | 3.5µM* | 5.6µM* | 20µM* | 11%[46 µM] | CN(C)c1ccc(C(=S)NC2CCCCC2)cc1
-1% | ? | -6% | -17%[59 µM] | 0% | -3% | CCN(CC)c1ccc(C(=O)O)cc1
0% | / | / | 14% | 7% | / | Cc1ccc(NC(=O)CCn2c(=O)[nH]c3ccsc3c2=O)cc1F

# Five records drawn at random from those above:
miR-21 reporter | KDM4E inh | ALDH1A1 block | G9a block | Sfp inh | LMNA splice mod | Molecule
0% | / | / | 14% | 7% | / | Cc1ccc(NC(=O)CCn2c(=O)[nH]c3ccsc3c2=O)cc1F
2% | ? | -11% | -5% | -10% | / | CC(CCCC(C)(C)O)CC1C2=C(CCCC2=O)OC2=C1C(=O)CCC2 (configuration not stated)
-34% | -20% | 7.9µM* | -147%[59 µM] | 32µM* | / | CCN(CC)c1ccc(C(=S)NC2CCCCC2)cc1
-59% | ? | 3.5µM* | 5.6µM* | 20µM* | 11%[46 µM] | CN(C)c1ccc(C(=S)NC2CCCCC2)cc1
0% | 1% | 4% | -32% | 15% | ? | CCOc1ccc(C(C)NC(=S)NC2CCCCC2)cc1OCC (configuration not stated)

# Next section
miR-21 reporter | KDM4E inh | ALDH1A1 block | G9a block | Sfp inh | LMNA splice mod | Molecule
-5% | / | / | 13%[59 µM] | / | / | Cc1cc2oc(C(=O)Nc3ccc(S(=O)(=O)N4CCC(C)CC4)cc3)cc(=O)c2cc1C
-4% | 3% | -2% | 11%[12.7 µM] | 50µM* | ? | CCOC(=O)c1cnn(-c2cc(Oc3ccccc3C)ncn2)c1N
-2% | / | / | ? | 4% | / | O=C1C(=O)N(CCCN2CCOCC2)C(c2ccc(F)cc2)/C1=C(/O)c1ccccc1 (configuration not stated)
-5% | ? | 25µM* | 8.9µM* | 56µM* | ? | O=C1C(=O)N(CCN2CCOCC2)C(c2ccccn2)/C1=C(/O)c1ccc(F)cc1 (configuration not stated)
0% | ? | ? | 7.9µM* | ? | 7%[46 µM] | Cc1c(/C(O)=C2/C(=O)C(=O)N(CCN3CCOCC3)C2c2ccccn2)cnn1-c1ccccc1 (configuration not stated)
-59% | ? | / | 10%[12.7 µM] | -17% | / | Cc1ccc(C2/C(=C(/O)c3cnn(-c4ccccc4)c3C)C(=O)C(=O)N2CCCN2CCOCC2)o1 (configuration not stated)
-49% | -6% | ? | 20µM* | -13% | ? | Cc1c(/C(O)=C2\C(=O)C(=O)N(CCN(C)C)C2c2cccs2)cnn1-c1ccccc1 (configuration not stated)
-3% | -8% | ? | ? | 9% | 3% | Cc1c(/C(O)=C2\C(=O)C(=O)N(CCN(C)C)C2c2cccnc2)cnn1-c1ccccc1 (configuration not stated)
2% | -1% | 14µM* | -2%[59 µM] | 10% | 4% | CC(C)NC(=O)NC(=O)COC(=O)Cc1ccsc1
/ | / | / | 2.8µM* | / | / | CCN(CC)c1ccc(NC(=O)COC(=O)Cc2ccsc2)cc1
-4% | -29% | ? | ? | 63µM* | -10% | CCN(CC)c1ccc(NC(=O)COC(=O)C23CCC(=O)N2c2ccccc2S3)cc1 (configuration not stated)
/ | / | / | -47%[0.501 µM] | / | / | O=C(Cc1ccc(S(=O)(=O)N2CCOCC2)s1)NCCOc1ccccc1
2% | / | / | 1.3µM* | 3.5µM* | / | COc1ccc(-n2c(SCC(=O)C(C)(C)C)nc3c(sc(=S)n3-c3ccccc3)c2=O)c(OC)c1
-11% | / | / | -2%[59 µM] | / | / | Cc1ccc(-n2c(=O)c3ccc(C(=O)NCc4ccccc4Cl)cc3n(CC(=O)Nc3cccc(F)c3)c2=O)cc1
-5% | -4% | 8.9µM* | -19% | -1% | -26% | Cc1ccc(NC(=O)c2ccc(-c3nn(C)c(=O)c4ccccc34)cc2)c(C)c1
-1% | -1% | -15% | 18% | 79µM* | -9% | Cc1ccc(NC(=O)c2ccc(-c3nn(C)c(=O)c4ccccc34)cc2)cc1
-3% | / | / | ? | -6% | / | COc1ccc(CCc2nnc(NS(C)(=O)=O)s2)cc1
1% | -19% | / | / | 79µM* | / | O=C(O)C(Cc1ccccc1)N1C(=O)/C(=C/c2cccnc2)SC1=S (configuration not stated)
3% | -2% | 0% | ? | -10% | ? | O=C(NN1C(=O)/C(=C/c2cccnc2)SC1=S)C(c1ccccc1)c1ccccc1

# Bioassay records as filed in PubChem BioAssay.
